{"source": "patent US4933368A", "about": "“N-phenylbenzamide derivatives” (Godecke Aktiengesellschaft, priority 1983, dated 1990)", "test_system": "murine tumors and human tumor xenografts", "assay": "Antineoplastic activity in tumor-carrying animals, general statements", "details": "treated animals regain their initial weight loss"}
{"smiles": "Nc1ccc(C(=O)Nc2ccccc2N)cc1", "note": "[Substance A, 4-Amino-N-(2'-aminophenyl)-benzamide]", "values": [{"measurement": "tolerated duration of doses just under the acutely lethal dose", "result": "more than 30 days"}]}
